Source: patent publication US20230242616A1, “CHEMOKINE-SELECTIVE CXCR4 ECTODOMAIN-DERIVED (POLY)PEPTIDE” (Ludwig-Maximilians-Universität München, priority 2020, published 2023)
pKd: −log10 of the molar value.

Amino acid sequences for entries named in this document (tags omitted). A change or cut given only in a name is not applied to a line headed by its entry.
UniProt P61073: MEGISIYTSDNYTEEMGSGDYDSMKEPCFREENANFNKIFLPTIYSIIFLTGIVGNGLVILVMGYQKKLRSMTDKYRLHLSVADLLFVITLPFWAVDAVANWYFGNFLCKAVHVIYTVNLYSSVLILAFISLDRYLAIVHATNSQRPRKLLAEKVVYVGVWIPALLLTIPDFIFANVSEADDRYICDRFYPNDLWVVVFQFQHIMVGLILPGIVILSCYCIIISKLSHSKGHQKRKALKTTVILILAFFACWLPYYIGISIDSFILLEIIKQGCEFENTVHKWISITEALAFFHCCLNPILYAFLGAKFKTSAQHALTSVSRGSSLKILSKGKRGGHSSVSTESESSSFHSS

Target: T1, msR4M-L1 (Homo sapiens, UniProt P61073)
T1 construct: made in house; host or cells: chemical synthesis (SPPS, Fmoc)
Assay: Fluorescence titration of Fluos-msR4M-L1 with partial MIF peptides
Settings: Screen of binding region MIF(38-80); Fluos-msR4M-L1 5 nM; read-out: App. KD
Protocol: Fluorescence spectroscopy. Fluorescence spectroscopic titrations were performed as described^28, 32. Fluorescence spectra were recorded using a JASCO FP-6500 fluorescence spectrophotometer. […] Apparent KD values (app. KD) were calculated assuming a 1/1 binding model^32.

With `CC[C@H](C)[C@H](NC(=O)[C@H](CCCCN)NC(=O)CNC(=O)[C@@H](NC(=O)[C@H](CO)NC(=O)[C@H](Cc1c[nH]cn1)NC(=O)[C@H](CC(C)C)NC(C)=O)[C@@H](C)CC)C(=O)NCC(=O)NCC(=O)N[C@@H](C)C(=O)N[C@@H](CCC(N)=O)C(=O)N[C@@H](CC(N)=O)C(=O)N[C@@H](CCCNC(=N)N)C(=O)N[C@@H](CO)C(=O)N[C@@H](Cc1ccc(O)cc1)C(=O)N[C@@H](CO)C(=O)N[C@@H](CCCCN)C(=O)N[C@@H](CC(C)C)C(=O)N[C@@H](CC(C)C)C(=O)O` [MIF 62-80] as the compound, how does the pKd read?
The pKd was less than 5.30.
